Source: US7410993B2, “3,6-disubstituted azabicyclo [3.1.0] hexane deriviatives useful as muscarinic receptor antagonists” (Ranbaxy Laboratories Limited, priority 2002, dated 2008)

Amino acid sequences for entries named in this document (tags omitted).
UniProt P08483, whole entry: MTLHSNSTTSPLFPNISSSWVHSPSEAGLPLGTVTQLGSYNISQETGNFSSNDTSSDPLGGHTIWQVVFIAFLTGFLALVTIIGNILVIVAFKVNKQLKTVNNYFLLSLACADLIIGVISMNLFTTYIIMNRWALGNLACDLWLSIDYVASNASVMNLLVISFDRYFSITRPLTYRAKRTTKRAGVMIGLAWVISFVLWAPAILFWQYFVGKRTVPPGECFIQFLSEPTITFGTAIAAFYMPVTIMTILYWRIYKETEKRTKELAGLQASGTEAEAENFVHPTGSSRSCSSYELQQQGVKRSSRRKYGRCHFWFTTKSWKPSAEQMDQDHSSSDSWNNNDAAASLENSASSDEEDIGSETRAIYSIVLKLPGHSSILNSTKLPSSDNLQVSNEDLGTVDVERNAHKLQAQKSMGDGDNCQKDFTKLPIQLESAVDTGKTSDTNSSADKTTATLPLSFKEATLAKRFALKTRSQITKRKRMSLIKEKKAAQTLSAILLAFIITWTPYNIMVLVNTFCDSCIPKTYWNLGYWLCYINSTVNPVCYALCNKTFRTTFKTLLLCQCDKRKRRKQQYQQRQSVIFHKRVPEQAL

These molecules were tested against T1, M3 muscarinic receptor (Rattus norvegicus, UniProt P08483) (assay: Radioligand binding assay, [3H]-N-methylscopolamine, rat submandibular gland membranes). Conditions: [3H]NMS binding.
T1 construct: Submandibular glands and heart were isolated and placed in ice cold homogenizing buffer; from tissue; host or cells: rat submandibular gland membrane homogenate

Row | SMILES | Ki
1 | Cc1ccc(OCc2ccccc2)c(C(CCN2CC3CC3C2)c2ccccc2)c1 (centres unmarked) [Compound No. 1, 1-(3-azabicyclo[3.1.0]hex-3-yl)-3-(2-benzyloxy-5-methylphenyl)-3-phenyl propane] | > 1000 nM
2 | Cc1ccc(OCc2ccccc2)c(C(CCN2CC3(C)CC3(C)C2)c2ccccc2)c1 (centres unmarked) [Compound No. 3, 1-(1,5-dimethyl-3-azabicyclo[3.1.0]hex-3-yl)-3-(2-benzyloxy-5-methylphenyl)-3-phenyl propane] | > 10000 nM
3 | Cc1ccc(O)c(C(CCN2CC3(C)CC3(C)C2)c2ccccc2)c1 (centres unmarked) [Compound No. 4, 1-(1,5-dimethyl-3-azabicyclo[3.1.0]hex-3-yl)-3-(2-hydroxy-5-methylphenyl)-3-phenyl propane] | > 1000 nM
4 | Cc1ccc(OCc2ccccc2)c(C(CCN2CC3CC3C2C)c2ccccc2)c1 (centres unmarked) [Compound No. 7, 1-(2-methyl-3-azabicyclo[3.1.0]hex-3-yl)-3-(2-benzyloxy-5-methylphenyl)-3-phenyl propane] | > 1000 nM

The next molecules have a lower Ki than those just listed; values first:

Row | Ki | SMILES
5 | 118 nM | Cc1ccc(O)c(C(CCN2CC3CC3(C)C2)c2ccccc2)c1 (centres unmarked) [Compound No. 6, 1-(1-methyl-3-azabicyclo[3.1.0]hex-3-yl)-3-(2-hydroxy-5-methylphenyl)-3-phenyl propane]
6 | 79 nM | Cc1ccc(O)c(C(CCN2CC3CC3C2C)c2ccccc2)c1 (single isomer, unassigned) [Compound No. 8, 1-(2-methyl-3-azabicyclo[3.1.0]hex-3-yl)-3-(2-hydroxy-5-methylphenyl)-3-phenyl propane]
7 | 50 nM | Cc1ccc(O)c(C(CCN2CC3CC3C2)c2ccccc2)c1 (centres unmarked) [Compound No. 2, 1-(3-azabicyclo[3.1.0]hex-3-yl)-3-(2-hydroxy-5-methylphenyl)-3-phenyl propane]
8 | 25 nM | Cc1ccc(O)c(C(CCN2CC3CC3C2C)c2ccccc2)c1 (single isomer, unassigned) [Compound No. 9, 1-(2-methyl-3-azabicyclo[3.1.0]hex-3-yl)-3-(2-hydroxy-5-methylphenyl)-3-phenyl propane]
